ERp5 inh: inhibitors of human ERp5; ERp5 insulin aggregation, absorbance 650 nm, 90 min; inhibition, % at 9.99 µM; hit rate 0.05% among 350,000;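 active = mean replicate inhibition above about 25%, with every replicate also reaching it, limit read from the data, passing the limit was not always enough; inconclusive = only one of those two criteria met; inactive = neither criterion met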
PglD DTNB: blocks C. jejuni PglD acetyltransferase activity; AID 602405; purified PglD enzyme, DTNB colorimetric CoA detection; hit rate 0.098% among 360,000; inhibition, % at 12.5 µM; in the data active = inhibition above about 16%, passing the limit was not always enough; inconclusive = no clear call, values can overlap the other calls
FGF22 binding: binders of recombinant human FGF22 by thermal shift. Q9HCT0. SYPRO orange fluorescence; percent of sucrose octasulfate shift, DMSO zero. activity (Tm shift, normalised), % at 9.99 µM. hit rate 1.5% among 340,000. AID 651658;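 active = mean Tm shift, scaled 0 neutral to 100 positive control, at about 1.3% or above, every replicate too, limit read from the data; inconclusive = no clear call, values can overlap the other calls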
ARNT TACC3 PPI: ARNT/TACC3 interaction disruption | Q9Y6A5 | AlphaScreen His-ARNT PAS-B/GST-TACC3 binding, luminescence; TACC3 fragment carries E629A point mutation | inhibition, % at 9.99 µM | hit rate 0.66% among 390,000 | AID 623870;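 active = mean inhibition of replicates at least 50% and at least half of replicates each reaching 50%; inconclusive = half or more replicates reach 50% but mean below 50%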;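 note: 0% = complete ARNT plus TACC3 wells and 100% = ARNT alone without TACC3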
UUG fidelity: yeast start codon fidelity modulation | S. cerevisiae UUG-firefly luciferase reporter, luminescence/redox ratio | activity score, % at 18.7 µM | 0.13% of 350,000 active | AID 602363;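 active means replicate mean at a twofold rise or more, about +100% in these data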;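 further: firefly luciferase made from a UUG start codon reports start codon fidelity; reporter light over untreated wells divided by growth signal over untreated wells; some hits fall short of that in this replicate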
PDI turbidity: blocks human protein disulfide isomerase activity | P07237 | PDI insulin aggregation turbidity, A650, 90 min | inhibition, % at 10 µM | hit rate 0.052% among 350,000 | AID 588391;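 active = mean inhibition across replicates of 30% or more, whatever share of single replicates reach that level; inconclusive = mean inhibition below 30% while every single replicate reaches 30%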
* hit, by the source's call; ? = inconclusive; . = no result. A selection: hits, their analogues and other compounds. The true share with any hit is near 1.9%.

Screens by letter: A = ERp5 inh; B = PglD DTNB; C = FGF22 binding; D = ARNT TACC3 PPI; E = UUG fidelity; F = PDI turbidity
#1 O=C(c1ccccc1)N1C[C@H]2[C@@H](c3ccccc31)[C@H](CO)N2Cc1cc(F)ccc1F
  A: 1 | B: 0 | C: 0 | D: 6 | E: -3 | F: .

#2 CO[C@H]1CN(C)C(=O)c2ccc(NS(=O)(=O)c3cn(C)cn3)cc2OC[C@H](C)N(C)C[C@@H]1C
  A: -5 | B: . | C: 0 | D: . | E: . | F: .

#3 O=C(Nc1ccc(F)cc1)N1C[C@@H]2[C@H](c3ccccc31)[C@H](CO)N2C(=O)Cc1ccccn1
  A: 1 | B: -1 | C: -1 | D: -9 | E: 15 | F: .

#4 O=C(NCCN1CCOCC1)c1ccc(CSc2nc3ccncc3n2Cc2ccc(F)cc2)cc1
  A: -1 | B: . | C: 44* | D: . | E: . | F: 4

#5 CCOC(=O)C(NCCCCl)c1ccccc1 (centres undefined)
  A: . | B: . | C: . | D: -10 | E: . | F: 5

#6 CC(=O)N(CCCCl)C(C#N)c1ccccc1 (centres undefined)
  A: -5 | B: . | C: 44* | D: -3 | E: . | F: -6

#7 N#CC(c1ccccc1)N(CCCCl)C(=O)c1ccccc1 (centres undefined)
  A: -3 | B: 5 | C: 43* | D: . | E: -12 | F: 4

#8 C[C@H]1CN([C@@H](C)CO)C(=O)c2cccc(NC(=O)c3ccc(-c4nccs4)cc3)c2O[C@H]1CN(C)Cc1ccc2c(c1)OCO2
  A: 2 | B: 10 | C: 0 | D: . | E: 33 | F: .

#9 N#C[C@H]1[C@@H](c2ccccc2-c2cccc(F)c2)[C@H](CO)N1S(=O)(=O)c1cccc(F)c1
  A: 1 | B: . | C: -1 | D: . | E: . | F: .

#10 OC(COc1ccc2c(c1)OCO2)CN1CCN(c2ccccc2)CC1 (centres undefined)
  A: 2 | B: . | C: 0 | D: . | E: . | F: 3

#11 OC(COc1ccc2c(c1)OCO2)CN1CCCCC1 (centres undefined)
  A: 1 | B: . | C: 44* | D: -8 | E: . | F: 3

#12 O=C(N[C@@H]1CC[C@H](CCNS(=O)(=O)c2cccc(Cl)c2)O[C@H]1CO)c1ccncc1
  A: -1 | B: 1 | C: 0 | D: -27 | E: -9 | F: .

#13 O=C(C[C@H]1C[C@H]2c3cc(NC(=O)Nc4ccccc4F)ccc3O[C@H]2[C@@H](CO)O1)NCCc1ccccc1
  A: 4 | B: 0 | C: 0 | D: -12 | E: -14 | F: .

#14 CC(C)NC(C(=O)Nc1cc(Cl)cc(Cl)c1)c1ccccc1 (centres undefined)
  A: . | B: -7 | C: . | D: -5 | E: -9 | F: 1

#15 CN(C)CCNC(C(=O)Nc1cc(Cl)cc(Cl)c1)c1ccccc1 (centres undefined)
  A: 16 | B: . | C: 43* | D: -6 | E: . | F: 1

#16 COc1ccc2[nH]cc(CCNC(=O)CS(=O)(=O)Cc3ccccc3)c2c1
  A: 2 | B: 5 | C: 0 | D: 9 | E: 2 | F: 8

#17 COc1ccc2[nH]cc(CCNS(=O)(=O)Cc3ccccc3)c2c1
  A: 2 | B: 0 | C: 43* | D: 8 | E: -12 | F: 0

#18 C[C@@H](NC(=O)N(C)C[C@@H]1OCc2ccccc2-c2ccccc2C(=O)N([C@@H](C)CO)C[C@@H]1C)c1ccccc1
  A: -2 | B: -2 | C: 0 | D: 5 | E: . | F: .

#19 O=C(c1cc2cc(Br)ccc2s1)N1CCOCC1
  A: -8 | B: . | C: 43* | D: -10 | E: . | F: 9

#20 CN1C(=O)c2cc(NC(=O)c3cccs3)ccc2OC[C@H]2O[C@H](CC(=O)N3CCCCC3)CC[C@H]21
  A: 1 | B: 1 | C: 0 | D: -7 | E: . | F: .

#21 CCn1nc(CC(=O)O)c2ccccc2c1=O
  A: 0 | B: . | C: 44* | D: -3 | E: . | F: -2

#22 Cc1cc(C(=O)Nc2cccc3c2O[C@H](CN(C)Cc2ccc(Cl)c(Cl)c2)[C@@H](C)CN([C@H](C)CO)C3=O)n(C)n1
  A: 1 | B: 0 | C: 0 | D: -1 | E: 8 | F: .

#23 CC(Sc1nncs1)C(=O)Nc1ccc(S(=O)(=O)Nc2ncccn2)cc1 (centres undefined)
  A: 0 | B: -4 | C: 0 | D: 48* | E: -1 | F: 4

#24 O=C(C[C@@H]1C[C@@H]2c3cc(NC(=O)Nc4ccccc4F)ccc3O[C@@H]2[C@H](CO)O1)NCc1ccncc1
  A: -5 | B: 0 | C: 0 | D: -12 | E: -18 | F: .

#25 Cc1cc(C)n2c(Nc3ccc4c(c3)OCCO4)c(-c3ccccn3)nc2n1
  A: 0 | B: . | C: 0 | D: . | E: . | F: .

#26 Cc1ccn2c(Nc3ccc4c(c3)OCO4)c(-c3ccccn3)nc2c1
  A: 5 | B: 3 | C: 0 | D: 66* | E: -21 | F: 0

#27 C=CCN1N=C(/C=C/c2ccc(OC)cc2)CCC1=O
  A: 0 | B: 7 | C: 0 | D: 16 | E: -1 | F: -11

#28 COc1ccc(/C=C/C2=NN(Cc3ccccc3)C(=O)CC2)cc1
  A: ? | B: . | C: 43* | D: 1 | E: . | F: 4

#29 Cc1cc(S(=O)(=O)N2CCCC(C(=O)Nc3ccc(C(=O)O)cc3)C2)ccc1Cl (centres undefined)
  A: -2 | B: . | C: 43* | D: -28 | E: . | F: 1

#30 COC(=O)c1ccc(NC(=O)C2CCCN(S(C)(=O)=O)C2)cc1 (centres undefined)
  A: 3 | B: -2 | C: 43* | D: -4 | E: -17 | F: -17

#31 CC(=O)N1c2ccc(S(=O)(=O)N3CCCC(C(=O)Nc4ccc(C)cc4)C3)cc2CC1C (centres undefined)
  A: 2 | B: 1 | C: 0 | D: . | E: -19 | F: -7

#32 CCC(=O)N[C@@H]1CC[C@@H](CC(=O)NCC2CCCCC2)O[C@@H]1CO
  A: 2 | B: -1 | C: 0 | D: -10 | E: -4 | F: .

#33 C[C@@H]1CN([C@@H](C)CO)C(=O)c2cc(NC(=O)CCCCCC(=O)Nc3ccccc3N)ccc2O[C@H]1CN(C)C(=O)Nc1ccc2c(c1)OCO2
  A: 2 | B: . | C: 0 | D: . | E: . | F: .

#34 C[C@@H]1CN([C@@H](C)CO)C(=O)c2cc(NC(=O)Nc3ccc(C(F)(F)F)cc3)ccc2O[C@@H](C)CCCCO[C@@H]1CN(C)C(=O)CCCN(C)C
  A: . | B: 1 | C: -1 | D: 4 | E: 12 | F: .

#35 CCOC(=O)c1c(CN2CCN(C)CC2)n(-c2ccccc2)c2cc(Br)c(O)cc12
  A: -2 | B: . | C: 0 | D: 3 | E: . | F: 14

#36 CCOC(=O)c1c(CN2CCN(CCO)CC2)n(-c2ccccc2)c2cc(Br)c(O)cc12
  A: -4 | B: . | C: 0 | D: 13 | E: . | F: 58*

#37 CO[C@@H]1CN(C)C(=O)c2cc(NS(C)(=O)=O)ccc2OC[C@@H](C)N(CC2CCCCC2)C[C@H]1C
  A: 0 | B: -5 | C: 1 | D: -1 | E: 3 | F: .

#38 O=Cc1ccc(-c2ccccc2C(=O)O)o1
  A: -5 | B: . | C: 43* | D: . | E: . | F: 2

#39 COc1cccc(-c2ccc3c(c2)[C@H]2[C@H](CCN2C(=O)NC2CCCCC2)[C@H](CO)N3C)c1
  A: 1 | B: . | C: . | D: . | E: . | F: .

#40 Cc1ccc(CN2CC(=O)N3[C@H](CO)[C@@H](c4ccc(-c5ccccc5F)cc4)[C@@H]3C2)cc1
  A: -1 | B: . | C: . | D: . | E: . | F: .

#41 CC(=O)N(c1ccccc1C)S(=O)(=O)c1ccc(Cl)cc1
  A: 1 | B: . | C: 43* | D: -10 | E: . | F: 0

#42 C[C@@H]1CN([C@@H](C)CO)C(=O)Cc2cc(NC(=O)CCC(F)(F)F)ccc2O[C@H]1CN(C)Cc1ccccc1
  A: 2 | B: 2 | C: 0 | D: 4 | E: -1 | F: .

#43 CC(=O)N[C@@H]1CC[C@H](CCNC(=O)C2CC2)O[C@@H]1CO
  A: -2 | B: -2 | C: 0 | D: -16 | E: -7 | F: .

#44 O=C(N[C@H]1CC[C@@H](CCn2cc(-c3ccccc3)nn2)O[C@@H]1CO)c1ccccc1F
  A: -10 | B: 1 | C: 0 | D: -2 | E: 7 | F: .

#45 CCC(C)NC(=S)N1CCN(Cc2ccc3c(c2)OCO3)CC1 (centres undefined)
  A: 2 | B: . | C: 43* | D: -7 | E: . | F: -1

Quoted from the listing.
Value for no. 17 under ERp5 inh: 2
Value for no. 11 under FGF22 binding: 44*
Value for no. 34 under UUG fidelity: 12

Marked active in ARNT TACC3 PPI, among the entries above:
no.	Compound	ERp5 inh	PglD DTNB	ARNT TACC3 PPI	UUG fidelity	PDI turbidity
23	CC(Sc1nncs1)C(=O)Nc1ccc(S(=O)(=O)Nc2ncccn2)cc1 (centres undefined)	0	-4	48*	-1	4
26	Cc1ccn2c(Nc3ccc4c(c3)OCO4)c(-c3ccccn3)nc2c1	5	3	66*	-21	0
